The list is not random: actives were taken first. Their share in the collection is about 1.2%.
miR122 inh: inhibitors of miR-122 in Huh7 cells; Huh7 miR-122 Renilla luciferase sensor, 48 h; neutral wells = 0, positive control = 100; activation (reporter increase), % at 12.5 µM; 340,000 compounds, 0.3% hits;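 active = mean replicate activation score at least 90 and every replicate individually at or above 90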;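 note: higher luciferase means less miR-122 activity so hits act as miR-122 inhibitors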
UUG fidelity: modulators of yeast start codon fidelity, primary screen, whole organism, S. cerevisiae, single point, plate reader; S. cerevisiae UUG-firefly luciferase reporter, luminescence/redox ratio; activity score, % at 18.7 µM; actives 0.13% (n = 350,000);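 active means replicate mean at a twofold rise or more, about +100% in these data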;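 further: firefly luciferase made from a UUG start codon reports start codon fidelity; reporter light over untreated wells divided by growth signal over untreated wells; some hits fall short of that in this replicate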
Cneo AK release: Cryptococcus neoformans lysis via adenylate kinase release. C. neoformans lysis, adenylate kinase release luminescence, 4 h; normalised: neutral wells 0, clomiphene wells 100. lysis activity, % at 15 µM. 360,000 compounds, 0.2% hits;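 active = mean lysis activity across replicates of at least 80%, whatever share of replicates individually reach that level; inactive = mean lysis activity below 80%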
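read-out = cell lysis signal | test system = log-phase Cryptococcus neoformans yeast cells | input = cells at 5 × 10^6 per mL | medium = fresh YPD growth medium | signal = luminescent adenylate kinase detection reagent | timing = 4 h at 37 °C static, read 1 h later | dosing = single dose | controls = Clomiphene as positive lysis control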
C2C12 statin: suppression of simvastatin myotoxicity; C2C12 myotubes + simvastatin, ATP luminescence, 48 h; scaled: DMSO 0, geranylgeraniol control 100; rescue of ATP level, % at 7.49 µM; 330,000 compounds, 0.78% hits;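 active = mean ATP rescue above about 67%, or every replicate alone reaching that limit, limit read from the data, passing the limit was not always enough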;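 note: myotubes were challenged with 10 µM simvastatin during compound exposure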
Hits are given with their value; i = inactive; nt = no result given.

SMILES	miR122 inh	UUG fidelity	Cneo AK release	C2C12 statin
CO[C@@H]1CN(C)C(=O)c2cc(NC(=O)C3CC3)ccc2OC[C@@H](C)N(Cc2ccncc2)C[C@H]1C	i	i	i	i
O=S(=O)(Nc1ccc(Cl)cc1)c1ccc2c(c1)CCO2	123	i	i	nt
CC(=O)N1CCOc2ccc(S(=O)(=O)Nc3cccc(C)c3)cc21	130	nt	nt	i
Cc1cccc(NS(=O)(=O)c2ccc3c(c2)OCCO3)c1	119	i	i	i
COc1ccc(S(=O)(=O)Nc2ccc3c(c2)OCCO3)cc1Cl	i	nt	nt	114
Cc1ccc(S(=O)(=O)Nc2ccc3c(c2)OCCO3)cc1C	nt	nt	nt	i
C[C@@H]1CN([C@@H](C)CO)C(=O)c2cc(NC(=O)CCN3CCOCC3)ccc2O[C@H]1CN(C)S(C)(=O)=O	i	i	i	i
CC(=O)N1CCOc2ccc(S(=O)(=O)NCCc3ccccc3)cc21	i	i	i	i
CC(=O)N1CCOc2ccc(S(=O)(=O)NCCc3cccc(C)c3)cc21	116	i	i	i
Cc1cc(NC(=O)CSc2ccc3nnc(CCNS(=O)(=O)c4ccccc4)n3n2)no1	i	i	i	86
CCCN1C[C@H](C)[C@@H](OC)CN(C)C(=O)c2cc(NC(=O)c3ccno3)ccc2OC[C@@H]1C	nt	i	i	i
NC(=O)C1CCN(Cc2nc3ccccc3c(=O)[nH]2)CC1	i	i	i	i
NC(=O)C1CCN(Cc2nc3cc(Cl)ccc3c(=O)[nH]2)CC1	i	i	i	102
O=C1CCCC2=C1C(c1cccs1)Nc1ccc3ncccc3c12 (centres undefined)	i	i	i	139
Cc1ccsc1C1Nc2ccc3ncccc3c2C2=C1C(=O)CC(C)(C)C2 (centres undefined)	95	i	i	i
O=C1CCCC2=C1C(c1ccc(O)c(O)c1)Nc1ccc3ncccc3c12 (centres undefined)	nt	i	i	i
C[C@@H]1CN([C@@H](C)CO)C(=O)c2cc(NC(=O)Nc3ccccc3)ccc2O[C@H]1CN(C)C(=O)Nc1ccc(C(F)(F)F)cc1	i	i	i	i
CN(C)C(=O)C[C@@H]1CC[C@H](NC(=O)NC2CCCCC2)[C@H](CO)O1	i	i	i	i
O=c1[nH]ncc2c3ccccc3n(Cc3ccccc3)c12	i	i	i	108
CCOCCn1c(SCc2ccccc2)nc2c1c(=O)[nH]c(=O)n2C	i	i	i	i
C/C=C/Cn1c(SCc2ccccc2)nc2c1c(=O)[nH]c(=O)n2C	i	i	i	116
C[C@@H]1CN([C@@H](C)CO)C(=O)c2cccc(NC(=O)C3CC3)c2O[C@@H]1CN(C)S(=O)(=O)c1cn(C)cn1	i	i	i	i
Cn1cnnc1SCC(=O)N1CCC(Cc2ccccc2)CC1	i	i	i	99
COC(=O)C(F)(F)Sc1c(C)[nH]c2ccccc12	i	i	i	i
Cc1[nH]c2ccccc2c(=O)c1SC(F)(F)C(F)C(F)(F)F (centres undefined)	i	i	i	104
SMILES	miR122 inh	UUG fidelity	Cneo AK release	C2C12 statin
C[C@@H]1CN([C@@H](C)CO)C(=O)c2cc(NC(=O)NC3CCCCC3)ccc2O[C@H]1CN(C)S(=O)(=O)c1cccs1	i	i	i	nt
O=S(=O)(NCC1OCCc2ccccc21)c1ccc(S(=O)(=O)N2CCOCC2)cc1 (centres undefined)	i	i	i	i
c1ccc2c(c1)CCOC2CNCCCN1CCCCC1 (centres undefined)	i	i	i	91
COc1cccc(NC(=O)Cn2c(=O)n(C)c(=O)c3sc4c(c32)COC(C)(C)C4)c1	i	i	i	136
C[C@H]1CN([C@@H](C)CO)C(=O)c2cc(Br)cnc2O[C@@H]1CN(C)Cc1ccncc1	i	i	i	i
O=C(C[C@H]1CC[C@H](NC(=O)C2CC2)[C@@H](CO)O1)Nc1nccs1	nt	i	i	i
Cc1ccc(C(O)CN2C3=NCCN3c3ccccc32)cc1 (centres undefined)	i	i	i	121
OC(CN1C2=NCCN2c2ccccc21)c1ccccc1 (centres undefined)	i	i	i	i
NS(=O)(=O)OCC(Cc1ccccc1)N1C(=O)c2ccccc2C1=O (centres undefined)	i	i	i	111
CCOc1ccccc1NC1=NCC(=O)N1Cc1ccc(F)cc1	i	i	i	i
COc1ccccc1NC1=NCC(=O)N1Cc1ccccc1	i	i	i	88
COc1ccc(S(=O)(=O)Nc2ccc(CC#N)cc2)cc1	164	i	i	i
COC(=O)c1ccc(NS(=O)(=O)c2ccc(OC)cc2)cc1	i	i	i	i
N#CCc1ccc(NS(=O)(=O)c2ccc(C3CCCCC3)cc2)cc1	182	i	i	nt
